Data from publication PMC5972182, “Comparison of a Rat Primary Cell-Based Blood-Brain Barrier Model With Epithelial and Brain Endothelial Cell Lines: Gene Expression and Drug Transport” (Frontiers in Molecular Neuroscience, 2018).

Assays:
[1] = Permeability across MDCK cell layers; type: in vitro ADME, canine; conditions: dog, 10 μM (glucopyranose 100 μM, valproic acid 300 μM), 60–120 min; for Papp A→B: apical to basal, unit inferred
[2] = Permeability across Caco-2 epithelial cell layers; type: in vitro ADME; conditions: human, 10 μM (glucopyranose 100 μM, valproic acid 300 μM), 60–120 min; for Papp A→B: apical to basal, unit inferred
[3] = system: MDR1; assay: Permeability across MDCK-MDR1 cell layers; type: in vitro ADME, canine; conditions: dog, 10 μM (glucopyranose 100 μM, valproic acid 300 μM), 60–120 min
[4] = Permeability across MDCK-MDR1 cell layers; type: in vitro ADME, canine; conditions: dog, apical to basal, 10 μM (glucopyranose 100 μM, valproic acid 300 μM), 60–120 min, unit inferred

SMILES	efflux ratio [1]	Papp A→B [1] [×10⁻⁶ cm/s]	efflux ratio [2]	Papp A→B [2] [×10⁻⁶ cm/s]	efflux ratio [3]	Papp A→B [4] [×10⁻⁶ cm/s]
NCC(CC(=O)O)c1ccc(Cl)cc1 (stereo not drawn) [Baclofen, baclofen]	0.77	1.28	0.77	1.23	0.82	0.68
NCC1(CC(=O)O)CCCCC1 [Gabapentin, gabapentin]	0.28	3.35	0.77	1.8	0.42	4.75
CO[C@H]1[C@H](O)[C@@H](CO)OC(O)[C@@H]1O (stereo partly drawn) [Glucopyranose, 3-O-methyl-D-glucopyranose]		< 18.5	0.64	57.8		< 18.5
CC[C@H](C)C(=O)O[C@H]1C[C@H](O)C=C2C=C[C@H](C)[C@H](CC[C@@H](O)C[C@@H](O)CC(=O)O)[C@H]21 [Pravastatin, pravastatin]	2.4	0.58	0.9	1.5	1.09	0.3
CCCN(CCC)S(=O)(=O)c1ccc(C(=O)O)cc1 [Probenecid, probenecid]	0.83	19.4	0.88	27.3	0.98	17.2
O=C(O)c1ccccc1O [Salicylic acid, salicylic acid]		13		16.6		
CCCC(CCC)C(=O)O [Valproic acid, valproic acid]	1.22	26.6	0.82	51.9	1.26	27.5
